In US7514419B2, “Phosphorus-containing thyromimetics” (Metabasis Therapeutics, Inc., priority 2003, dated 2009):

System: Hypercholesterolemic rats
Test: Cholesterol lowering in hypercholesterolemic rats
Type: in vivo, rat
Conditions: delivered p.o. (0.2 mg/kg/d); percentage change from pre-dose cholesterol

CC(C)c1cc(Oc2c(Br)cc(NCP(=O)(O)O)cc2Br)ccc1O
% Cholesterol Lowering: −19.9%
